Measured values from ChEMBL document CHEMBL1130791, “Novel HIV-protease inhibitors containing beta-hydroxyether and -thioether dipeptide isostere surrogates: modification of the P3 ligand” (Bioorg Med Chem Lett, 1998).

Molecular target: Human immunodeficiency virus type 1 protease (Human immunodeficiency virus 1, UniProt Q72874)
Experiment: Inhibitory activity against HIV-1 protease using scintillation proximity assay (SPA assay)

Question: How did the IC50 turn out when CC(C)(C)NC(=O)c1ccccc1OC[C@H](O)[C@H](Cc1ccccc1)NC(=O)[C@H](CC(N)=O)NS(=O)(=O)c1ccc2ccccc2c1 was run?
Answer: The IC50 was 425 nM.
